{"source": "patent US4284653A", "about": "“Process for handling and processing fish meat” (Nippon Suisan Kabushiki Kaisha, priority 1979, dated 1981)", "tested_on": "protease of hake flesh with jellied condition", "assay": "Inhibition of protease in aqueous extract of hake meat with jellied condition (urea-denatured hemoglobin substrate, Folin method)", "type": "biochemical", "settings": "aqueous fish meat extract, pH 3, 5 min", "experimental": "North Pacific hake (Merluccius products) on which the sporosa were parasitic was minced and homogenized with two volumes of water. After standing for 2 hours, the homogenate was centrifuged (15,000 xg, 20 minutes) under cooling condition, and the supernatant was dialyzed against tap water for 24 hours. The residual liquid remaining after the dialysis was heated at 50° C. for 20 minutes. The resulting precipitate was removed under cooling by centrifuge (15,000 xg, 30 minutes). The supernatant liquid was designated an aqueous extract of fish meat with jellied condition.\nSeparately, 3 ml of Mclvaine buffer solution (pH=3) was added to 1 ml of urea-denatured bovine hemoglobin (at a concentration of 4%) to prepare a substrate solution. 1 ml of a 1:1 mixture of the above obtained extract and a solution of various TPI was added to the above prepared substrate solution. The resulting mixture was incubated at 40° C. for 5 minutes. Thereafter, 5 ml of a 5% trichloroacetic acid was added to the mixture to allow the reaction to stop. […] 1 ml of the filtrate was colorometrically determined at a wave length of 660 mμ by a Folin method.\nThe protease inhibition ratio of various proteolytic activity of the TPI is expressed as the […] relative activity with respect to 100 of the activity of an extract prepared by adding water instead of the TPI solution. […]"}
{"smiles": "[K+].[O-][Br+2]([O-])[O-]", "note": "[potassium bromate]", "values": [{"measurement": "inhibition ratio (%)", "result": 98.0, "unit": "%"}]}
